These results are taken from paper PMC2693926.

For the test, the target named is sarin^nonaged-hAChE (Homo sapiens, UniProt P22303). Kind of test: Reactivation kinetics of sarin-inhibited hAChE (discontinuous method).

“And” between values parts separate entries of the source, which are not always exact repeats. Equal values may be shown once.

Regarding `NC(=O)c1cc[n+](CCC[n+]2ccc(/C=N/O)cc2)cc1.[Br-].[Br-]`, the “reactivation effectiveness compared with HI-6” value was “less effective”. Moreover, the “kr hAChE Sarin” value (mean±S.D. of 2–4 determinations, buffer condition as reported in [8]) was 0.054 min^−1 and 0.054±0.011 ^c min^−1.
